Results published in patent US20220387304A1, “MULTI-LAYERED NANOPARTICLE COATED SUBSTRATES FOR DRUG DELIVERY” (The UAB Research Foundation, priority 2019, published 2022).

Tested on: HSNECs
Assay: Ciliary beat frequency analysis
Type: cell-based, human
Settings: azithromycin 30 μg/ml, ciprofloxacin 0.5 μg/ml, apical surface
Experimental: After applying 100 μL of sterilized PBS as control or PBS containing drug to the apical surface of the cells, the motion images were acquired for 30 minutes. Under each condition, image acquisition was performed using a Basler area scan high-speed monochromatic digital video camera (Basler AG, Ahrensburg, Germany) at a sampling rate of 100 frames per second. The Sisson-Ammons Video Analysis (SAVA) system was used to acquire CBF. Baseline CBF recording was conducted in the previously described manner, and each analysis of CBF was normalized to fold-change over baseline CBF Hz (treatment/baseline).^28

O=C(O)c1cn(C2CC2)c2cc(N3CCNCC3)c(F)cc2c1=O [ciprofloxacin]
CBF fold changes (treatment/baseline): 1.41+/−0.32
